Data: ChEMBL document CHEMBL1681689, “Discovery of N-methyl-1-(1-phenylcyclohexyl)ethanamine, a novel triple serotonin, norepinephrine and dopamine reuptake inhibitor” (Bioorg Med Chem Lett, 2011)

Protein sequences, listed by entry. Tags and fused reporters are not part of them.
UniProt Q01959, whole entry: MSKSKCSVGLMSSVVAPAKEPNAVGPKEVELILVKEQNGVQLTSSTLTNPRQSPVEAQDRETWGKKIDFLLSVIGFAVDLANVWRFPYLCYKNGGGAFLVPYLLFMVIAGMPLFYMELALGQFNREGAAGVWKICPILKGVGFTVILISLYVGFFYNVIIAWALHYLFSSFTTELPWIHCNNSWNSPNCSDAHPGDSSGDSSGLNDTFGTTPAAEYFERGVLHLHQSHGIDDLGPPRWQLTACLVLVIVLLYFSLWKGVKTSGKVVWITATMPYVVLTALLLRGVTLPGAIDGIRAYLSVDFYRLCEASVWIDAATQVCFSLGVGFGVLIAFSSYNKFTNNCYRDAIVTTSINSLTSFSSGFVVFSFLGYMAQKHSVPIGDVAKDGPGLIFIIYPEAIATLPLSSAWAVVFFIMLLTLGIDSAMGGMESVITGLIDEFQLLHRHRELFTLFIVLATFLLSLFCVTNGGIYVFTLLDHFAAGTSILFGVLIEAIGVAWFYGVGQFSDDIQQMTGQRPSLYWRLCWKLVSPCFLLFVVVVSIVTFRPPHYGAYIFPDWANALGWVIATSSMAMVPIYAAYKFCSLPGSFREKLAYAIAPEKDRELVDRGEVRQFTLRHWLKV

Molecular target: Sodium-dependent dopamine transporter (Homo sapiens, UniProt Q01959)
Format: cell-based, COS-7

Question: With CC(N)C1(c2cccc3ccccc23)CCCCC1 (stereo unspecified) as the molecule, how does the IC50 read?
Answer: Its IC50 is 4 µM.
